{"source": "ChEMBL document CHEMBL2311383", "about": "“Discovery of piperazin-1-ylpyridazine-based potent and selective stearoyl-CoA desaturase-1 inhibitors for the treatment of obesity and metabolic syndrome” (J Med Chem, 2013)", "biological_target": "T1, Acyl-CoA desaturase 1 (Mus musculus, UniProt P13516)", "T1 sequence (P13516 whole entry)": "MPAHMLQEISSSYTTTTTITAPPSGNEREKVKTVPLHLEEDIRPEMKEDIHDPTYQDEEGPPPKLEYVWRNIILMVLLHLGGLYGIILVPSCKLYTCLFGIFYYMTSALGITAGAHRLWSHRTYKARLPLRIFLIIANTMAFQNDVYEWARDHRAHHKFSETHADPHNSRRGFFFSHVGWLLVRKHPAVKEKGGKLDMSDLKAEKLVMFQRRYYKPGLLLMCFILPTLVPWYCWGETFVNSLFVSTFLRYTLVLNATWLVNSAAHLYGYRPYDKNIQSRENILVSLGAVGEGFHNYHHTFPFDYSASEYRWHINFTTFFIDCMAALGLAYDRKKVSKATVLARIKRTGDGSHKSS", "assay": "Inhibition of SCD1 in ICR mouse liver microsome using [9,10 3H]- stearoyl-Coenzyme A substrate assessed as decreased production of tritiated water after 20 min by scintillation counting analysis", "data": [{"smiles": "O=C(NCCCCC1CC1)c1ccc(N2CCN(C(=O)c3ccccc3C(F)(F)F)CC2)nn1", "values": [{"measurement": "IC50", "result": 10, "unit": "nM"}]}]}
